Here are results for three compounds from PubChem BioAssay AID893 (National Center for Advancing Translational Sciences (NCATS), 2007).

The list shows a part of the results, in another mix than the full data. Inconclusive results are not listed. Active and inactive are the calls of the source. The call rests on the fitted dose curve; in most records, active means well fitted inhibition curve with a large enough effect; inconclusive means small, poorly fitted or top-dose-only effect; inactive means no such curve, though single readings can be large or run the other way.
Potency means the concentration at half of the fitted maximal effect.

In the assay the target is 3-hydroxyacyl-CoA dehydrogenase type-2 (Homo sapiens) (UniProt Q99714). Description: qHTS Assay for Inhibitors of HSD17B4, hydroxysteroid (17-beta) dehydrogenase 4. Further: nearly all actives have a fitted effect of over 70% in size. The settings on record: recombinant HSD17B10, NADH fluorescence kinetic. From the text:
Assay Overview: NIH Molecular Libraries Screening Centers Network [MLSCN] NIH Chemical Genomics Center [NCGC] Structural Genomics Consortium [SGC] Grant number: None HADH2: Hydroxyacyl-Coenzyme A dehydrogenase, type II, was supplied by researchers at the Structural Genomics Consortium, Oxford University lab (PI Udo Oppermann). The mitochondrial enzyme 17-hydroxysteroid dehydrogenase type 10 (HSD17-10) previously classified as type II hydroxyacyl-CoA dehydrogenase (HADH2) catalyzes the NAD+ dependent oxidation of a variety of substrates including acyl-CoAs, androgens and neurosteroids as well as bile acids(Shafqat N, Marschall HU, Filling C, et al. Biochemical Journal. 2003;376(Pt 1):49-60). […] The enzyme was produced by E.coli fermentation as His-tagged recombinant for the purpose of X-ray structure determination, and had been mass-spectrometry characterized. Inhibition of HADH2 activity was screened by utilizing beta-hydroxybutyryl coenzyme A as an electron donor and NAD+ as an electron acceptor/cofactor. An increase in the fluorescence intensity due to conversion of NAD+ to NADH was used to measure the enzyme activity.
Assay Protocol: Buffer: 100 mM Tris-HCl pH 9.0, containing 0.01 % Tween-20. Reagents/Controls: Buffer in columns 3 and 4 as negative control (no enzyme). Substrate/cofactor solution: 1 mM NAD+ and 90 uM beta-hydroxybutyryl coenzyme A (Sigma-Aldrich, St. Louis, MO) final concentrations dispensed throughout the plate. Enzyme: 20 nM HADH2 final concentration in columns 1, 2, 5-48. Column 1 is neutral (100% activity). Column 2 contained titration of apomorphine (Sigma-Aldrich, A 4393, PubChem CID 2215, top concentration 500 uM, then 1:2 dilution in duplicate) Assay Steps: Three uL of enzyme were dispensed to 1536-well Greiner black solid bottom plates. […] The plates were immediately transferred to and read every 30 seconds for 4 min on ViewLux High-throughput CCD imager (Perkin-Elmer) using 360 nm excitation and 450 nm emission fluorescence protocol. The fluorescence intensity difference between the last and the first time points was used to compute reaction progress.
On the technique in general: Quantitative high-throughput screening tests each substance at several concentrations.
For the compound `COc1cc2nc(N(C)CCCNC(=O)C3CCCO3)nc(N)c2cc1OC` (stereo not drawn), the Potency was active: 25.1 µM.
Consider `COc1cc2nc(N(C)CCCNC(=O)[C@@H]3CCCO3)nc(N)c2cc1OC`, for which the Potency was active: 12.6 µM.
With `O=c1ccc2ccc(O)cc2o1`, the Potency was active: 25.1 µM.
